Only some compounds are listed: those with a hit (about 16% of all), similar ones and a draw of the others.
DT40 TDP1 CPT = DT40-hTDP1 cell growth loss with CPT | chicken DT40 Tdp1-/-;hTDP1 cells + 20 nM CPT, ATP luminescence, 48 h | Potency, µM (top dose mostly 46.2 µM), for inactives: top-dose activity change, negative = growth inhibition, usual class: inhibitors | 420,000 tested, 12% active | AID 686979; further: potency means the concentration at half of the fitted maximal effect; on the % scale 0 is the no-effect control and ±100 the full control effect; nearly all actives have a fitted effect of over 55% in size
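Chicken DT40 Tdp1-/- cells complemented with human TDP1, 400 cells/well, exposed to compounds plus 20 nM camptothecin for at least 48 h at 37 C; viability read as ATP content by CellTiter-Glo luminescence.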
DT40 TDP1 no CPT = qHTS for Inhibitors of human tyrosyl-DNA phosphodiesterase 1 (TDP1): qHTS in cells in absence of CPT. DT40 Tdp1-/- hTDP1 cells, no CPT, ATP luminescence, 48 h. Potency, µM (top dose mostly 46.2 µM), for inactives: top-dose activity change, negative = growth inhibition, most hits filed as inhibitors. 420,000 tested, 15% active; further: potency means the concentration at half of the fitted maximal effect; on the % scale 0 is the no-effect control and ±100 the full control effect; nearly all actives have a fitted effect of over 55% in size
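No-CPT arm: Tdp1-/-;hTDP1 DT40 cells (400/well) plus compounds, incubated ≥48 hr at 37 °C. Readout CellTiter-Glo luminescence.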
miR-21 FLuc = miR-21 reporter, rising signal | AID 2288 | HeLa miR-21 FLuc reporter, luciferase, 48 h | 340,000 tested, under 10 active | Potency, µM (titrated, usually from 38.3 µM), for the others: at the top dose reporter change, positive = more light; active = well fitted rising curve with a large enough effect; inconclusive = small, poorly fitted or top-dose-only effect; inactive = no such curve, though single readings can be large or run the other way;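 also: % of control where 0% means no effect; miR-21 action dims this reporter so a rising signal means less miR-21 action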
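Compounds were titrated across several concentrations (up to approximately 40 uM) and incubated 48 hours with HeLa miR-21-FLuc reporter cells (miR-21 target sequence downstream of FLuc, endogenous miR-21). Readout was firefly luciferase luminescence after lytic detection reagent.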
uPA surface inh = inhibitors of cell surface uPA generation; cell surface uPA generation assay, qHTS; AID 540303; 330,000 tested, 0.31% active; Potency, µM (doses to about 38.3 µM), for inactives: top-dose activity change, negative = inhibition, most hits filed as inhibitors; active means well fitted inhibition curve with a large enough effect; inconclusive means small, poorly fitted or top-dose-only effect; inactive means no such curve, though single readings can be large or run the other way; tested in mouse RAW 264.7 cells; further: potency means the concentration at half of the fitted maximal effect; on the % scale 0 is the no-effect control and ±100 the full control effect; nearly all actives have a fitted effect of over 55% in size
TDP1 block = blocks human tyrosyl-DNA phosphodiesterase 1. AID 485290. recombinant TDP1, AlphaScreen DNA substrate cleavage. Potency, µM (series often up to 130 µM), without a hit: at the highest dose activity change, negative = inhibition, usual class: inhibitors. 350,000 tested, 0.28% active; further: potency means the concentration at half of the fitted maximal effect; on the % scale 0 is the no-effect control and ±100 the full control effect; nearly all actives have a fitted effect of over 40% in size
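AlphaScreen read-out: signal falls as enzyme removes the 3' tyrosine-FITC from a 5'-biotinylated DNA oligo (15 nM, 5 min, RT). Enzyme was E. coli-made recombinant Tdp1 at 1 nM, exposed to compound for 15 min beforehand; beads 10 ug/ml, 10 min.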
* = called active by the depositor; ? = inconclusive; · = no result given. Unless noted, the call rests on the fitted dose curve; in most records, active means well fitted curve in the direction sought with a large enough effect; inconclusive means small, poorly fitted or top-dose-only effect, or another doubt; inactive means no such curve, though single readings can be large; an effect the other way counts as inactive or inconclusive.

Short forms – A = DT40 TDP1 CPT; B = DT40 TDP1 no CPT; C = miR-21 FLuc; D = uPA surface inh; E = TDP1 block
O=C(c1ccc(S(=O)(=O)Cc2ccccc2Cl)c([N+](=O)[O-])c1)N1CCN(c2ccccn2)CC1
  A = 3.7µM* | B = 7.3µM* | C = 23% | D = ? | E = 6%
COc1ccc(C(=O)N2CCN(Cc3ccccc3)CC2)cc1[N+](=O)[O-]
  A = -12% | B = ? | C = 2% | D = 12% | E = 3%
O=C(c1ccc(S(=O)(=O)c2cccc(Cl)c2)c([N+](=O)[O-])c1)N1CCN(Cc2ccccc2)CC1
  A = 3.7µM* | B = 5.8µM* | C = 14% | D = -7% | E = 9%
O=C(c1ccc(S(=O)(=O)Cc2cc(F)ccc2F)c([N+](=O)[O-])c1)N1CCCC1
  A = 3.3µM* | B = 2.9µM* | C = 21% | D = -19% | E = 5%
C=CCn1c(SCc2nc3ccccc3[nH]2)nnc1-c1ccncc1
  A = -2% | B = -17% | C = -6% | D = 7% | E = 5%
COc1ccc2c(c1OC)C(=O)N(c1nccs1)C2
  A = -4% | B = -22% | C = -29% | D = -7% | E = 0%
C=CCN1CCN(c2ccncc2S(=O)(=O)N2CCOCC2)CC1
  A = 4% | B = 6% | C = 4% | D = 3% | E = 8%
Cc1c(C(=O)NN2CCCCC2)nn(-c2ccc(Cl)cc2Cl)c1-c1ccc(Cl)cc1
  A = ? | B = 19µM* | C = · | D = · | E = 6%
Cc1nn(-c2ccc(Cl)cc2Cl)c(C)c1C(=O)O
  A = 0% | B = -6% | C = -1% | D = -1% | E = 8%
COc1cc2nc(N3CCOCC3)nc(NC3CCN(C)CC3)c2cc1OC
  A = 10µM* | B = 16µM* | C = · | D = · | E = ·
COc1cc2nc(Cl)nc(N3CCN(C)CC3)c2cc1OC
  A = · | B = · | C = -7% | D = · | E = 3%
COc1cc2nc(N3CCN(C)CC3)nc(NC3CC3)c2cc1OC
  A = 11µM* | B = 10µM* | C = · | D = · | E = ·
COc1cc2nc(N3CCCCC3)nc(NC3CC3)c2cc1OC
  A = 13µM* | B = 16µM* | C = · | D = · | E = ·
COc1cc2nc(N3CCCN(C)CC3)nc(Nc3ccncc3)c2cc1OC
  A = 3.2µM* | B = 7.9µM* | C = · | D = · | E = ·
COC(=O)c1ccccc1NC(=S)N1CCN(c2ccccn2)CC1
  A = 4% | B = -20% | C = 3% | D = 17% | E = 1%
CCC(=O)c1ccc2c(c1)OCCO2
  A = -21% | B = 3% | C = -10% | D = 5% | E = 1%
O=C(Cn1ncc(Cl)c(Cl)c1=O)c1ccc2c(c1)OCCO2
  A = 16µM* | B = 23µM* | C = · | D = -10% | E = -3%
CCN(CC)S(=O)(=O)c1cc(NC(=O)Cc2ccsc2)ccc1C
  A = -24% | B = ? | C = 13% | D = 2% | E = 4%
CCN(CC)S(=O)(=O)c1cc(NC(=O)Cn2ncc(Cl)c(Cl)c2=O)ccc1C
  A = 3.7µM* | B = 2.3µM* | C = ? | D = -12% | E = 3%
Cc1nn(CC(=O)Nc2ccc3c(c2)OCO3)c(C)c1Cl
  A = -1% | B = -7% | C = -26% | D = -6% | E = 5%

Look-ups from the entries so far:
DT40 TDP1 no CPT, COc1cc2nc(N3CCN(C)CC3)nc(NC3CC3)c2cc1OC reads 10µM*
DT40 TDP1 no CPT, CCN(CC)S(=O)(=O)c1cc(NC(=O)Cn2ncc(Cl)c(Cl)c2=O)ccc1C reads 2.3µM*

The listing continues:
Short forms – A = DT40 TDP1 CPT; B = DT40 TDP1 no CPT; C = miR-21 FLuc; D = uPA surface inh; E = TDP1 block
O=C(CN1CCCCC1)NC(=O)NC1CCCC1
  A = 0% | B = 2% | C = -20% | D = -3% | E = -3%
O=C(Cn1ncc(Cl)c(Cl)c1=O)NC(=O)NC1CCCCC1
  A = 2.9µM* | B = 2.9µM* | C = · | D = 6% | E = 1%
O=C(Cn1ncc(Cl)c(Cl)c1=O)Nc1ccc2c(c1)OCO2
  A = 7.3µM* | B = 3.3µM* | C = · | D = ? | E = -7%
Cc1nc2sc3c(O)cc(=O)[nH]c3c2c(C)c1C
  A = ? | B = ? | C = 0% | D = 1% | E = -7%
CCOc1ccccc1NC(=O)CSc1nnc2ccc(-c3cccnc3)nn12
  A = ? | B = ? | C = -20% | D = -1% | E = 5%
O=C(Nc1ccccc1)c1ccccc1NC(=O)c1ccccc1[N+](=O)[O-]
  A = -29% | B = ? | C = · | D = 25% | E = ·
O=[N+]([O-])c1ccccc1C(=Nc1ccccc1)c1c(O)cc(O)cc1O
  A = ? | B = 18µM* | C = · | D = · | E = ·
O=C1C=C(C2OC(CO)C(O)C2O)C(=O)N1 (configuration not stated)
  A = 4.6µM* | B = 6.5µM* | C = · | D = ? | E = ·
COC(=O)[C@]1(C)CCC[C@@]2(C)C3CC[C@@]4(C)C[C@]3(CCC21)CC(=O)N4 (some centres not stated)
  A = ? | B = ? | C = · | D = 14% | E = 4%
C=C1C(=O)C23CCC4C(C)(C(=O)OC)CCCC4(C)C2CCC1(O)C3 (configuration not stated)
  A = 0.65µM* | B = 0.52µM* | C = · | D = -9% | E = ·
CN(C(=O)C=Cc1ccccc1)c1ccccc1
  A = -5% | B = -23% | C = · | D = -2% | E = ·
O=C(CCl)N(O)c1ccc(C=Cc2ccccc2)cc1
  A = 0.13µM* | B = 0.21µM* | C = · | D = -8% | E = ·
COc1ccc(NC(=O)CSc2nnc3ccc(-c4cccnc4)nn23)c(OC)c1
  A = 6% | B = 1% | C = · | D = 12% | E = ·
COC(=O)[C@]1(Cc2ccccc2)N[C@H](CN(C)C(=O)c2ccc(C)cc2)[C@@H]2C(=O)N(C)C(=O)[C@@H]21
  A = -22% | B = ? | C = · | D = 13% | E = 2%
CCc1c(C)[nH]c2ccccc2c1=O
  A = ? | B = 21µM* | C = 0% | D = -8% | E = 0%
C/C(=N\NC(=O)c1csc2ccccc12)c1ccc(O)cc1
  A = ? | B = 9.2µM* | C = 7% | D = -3% | E = 4%
C/C(=N\NC(=O)C(c1ccccc1)c1ccccc1)c1ccc(O)cc1
  A = ? | B = ? | C = -1% | D = -19% | E = ·
O=C(N/N=C/c1ccc(O)c(O)c1)c1cc(-c2ccccc2)nc2ccccc12
  A = 8.2µM* | B = ? | C = -16% | D = -13% | E = 7%
O=C(N/N=C/c1c(F)c(F)c(F)c(F)c1F)c1cc(-c2ccccc2)nc2ccccc12
  A = ? | B = -29% | C = -4% | D = 5% | E = ·
CCn1ncc(/C=N\NC(=O)c2csc3ccccc23)c1C
  A = 2.6µM* | B = 4.6µM* | C = -3% | D = -10% | E = -1%

Of the compounds above, 2 have fluorine.
Short forms – A = DT40 TDP1 CPT; B = DT40 TDP1 no CPT; C = miR-21 FLuc; D = uPA surface inh; E = TDP1 block
O=C(c1ccc(S(=O)(=O)Cc2cc(F)ccc2F)c([N+](=O)[O-])c1)N1CCCC1
  A = 3.3µM* | B = 2.9µM* | C = 21% | D = -19% | E = 5%
O=C(N/N=C/c1c(F)c(F)c(F)c(F)c1F)c1cc(-c2ccccc2)nc2ccccc12
  A = ? | B = -29% | C = -4% | D = 5% | E = ·

Following part:
Short forms – A = DT40 TDP1 CPT; B = DT40 TDP1 no CPT; C = miR-21 FLuc; D = uPA surface inh; E = TDP1 block
COc1ccc(/C=N/NC(=O)c2cc(-c3ccccc3)nc3ccccc23)c(OC)c1
  A = 15µM* | B = ? | C = 4% | D = -9% | E = ·
Nc1ncnc2nc(-c3ccccc3)[nH]c12
  A = 7% | B = ? | C = · | D = · | E = ·
Cc1ccccc1N1CC(C(=O)Nc2nnc(SCc3ccccn3)s2)CC1=O (configuration not stated)
  A = -2% | B = 10% | C = -1% | D = -8% | E = 2%
O=C(N/N=C/c1cccc(O)c1)c1cc(-c2ccccc2)nc2ccccc12
  A = 2.3µM* | B = ? | C = 9% | D = ? | E = ·
O=C(N/N=C/c1cc([N+](=O)[O-])ccc1Cl)c1cc(-c2ccccc2)nc2ccccc12
  A = ? | B = ? | C = -1% | D = 1% | E = ·
O=C(N/N=C/c1cccc(O)c1)c1csc2ccccc12
  A = ? | B = 0.65µM* | C = -39% | D = -5% | E = 9%
